Measured affinities in a library of Ab-14 heavy chain variants

From the AlphaSeq antibody data of Engelhart et al. 2022 (doi:10.1038/s41597-022-01779-4), copy in the FLAb collection.

Target peptide (SARS-CoV-2 spike, HR2 region): PDVDLGDISGINAS

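The starting antibody came from a phage panning campaign against this peptide. Library AAYL49 holds single substitutions and randomly drawn double and triple substitutions in the CDRs. In AlphaSeq, yeast of one mating type display the scFv and yeast of the other type display the target. Binding brings cells together so that they mate, and sequencing counts the barcode pairs among the diploids. Read counts were normalised to the haploid input and turned into Kd by a linear fit to BCL2-family pairs of known affinity, for each replicate. Mating was done three times.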

Ab-14 is the parent antibody, in scFv form: VH, then a 15-residue (Gly4Ser)3 linker, then VL. The light chain is unchanged in all variants.
VH: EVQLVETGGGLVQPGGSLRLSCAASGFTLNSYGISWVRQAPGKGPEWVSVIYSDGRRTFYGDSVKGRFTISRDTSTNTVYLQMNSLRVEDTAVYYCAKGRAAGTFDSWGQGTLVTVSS
VL: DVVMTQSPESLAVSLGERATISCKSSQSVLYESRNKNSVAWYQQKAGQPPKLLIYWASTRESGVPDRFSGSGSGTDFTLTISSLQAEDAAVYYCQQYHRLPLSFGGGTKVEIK

The parent's heavy chain CDRs are GFTLNSYGIS, VIYSDGRRTFYGDSVK, GRAAGTFDS; each variant's own CDRs replace them letter for letter.
Scale: log10 of Kd in nM, estimated from mating counts; low values are strong binders.
Replicates are averaged; those with no signal do not enter the mean.
"ND" means that the variant was in the library but no mating with the target was seen in that replicate; the authors take this as a sign of poor binding, and no number exists.
Background: pairings of library AAYL49 with three empty control strains gave a value in 15% of cases (median 4.06, 5th percentile 2.83). Values in that range, when seen in few replicates, are hard to tell from nonspecific mating. For each scFv, signals with the empty controls are counted beside the result, with their mean in brackets.
Parent in this assay: reference entry 0.65, copy in this library 4.11 (one replicate of three).

| # | CDR-H1 | CDR-H2 | CDR-H3 | replicates, log10 nM | mean log10 Kd (nM) | control signals |
|---|---|---|---|---|---|---|
| 1 | GFTLNSYGIL | VIYSDGRKTFYGDSVK | GCAAGTFDS | ND / ND / ND | ND | 4 of 9 (4.26) |
| 2 | GQTLNSYGIS | VIYSDGRRTFYGDSDK | GRAAGTFDS | ND / ND / ND | ND | 4 of 9 (4.54) |
| 3 | GFTLNPYGIS | VIYSDGRRTDYGDQVK | GRAAGTFDS | ND / 3.25 / ND | 3.25 | 0 of 9 |
| 4 | GFTLNSYCIS | VPYSDGRRTFYGDSVK | GRAAGTFDS | ND / 5.17 / ND | 5.17 | 2 of 9 (4.03) |
| 5 | GFTLGSYGIS | VIYSDGRRTFYGDSVK | GRAAGTFDS | 1.41 / 1.50 / 1.50 | 1.47 | 0 of 9 |
| 6 | GFTLNSRGIS | VIYSDGRRTEYGLSVK | GRAAGTFDS | 4.04 / ND / 3.69 | 3.86 | 0 of 9 |
| 7 | GFTLNSYGIS | VIYSDGRRKFYNDSVK | GRAADTFDS | ND / 5.42 / ND | 5.42 | 0 of 9 |
| 8 | GFTLNRYGIS | VHYSDGRRTFYGDSVK | GRALGTFDS | 5.54 / ND / ND | 5.54 | 3 of 9 (4.34) |
| 9 | GFTLNSYGIS | VIYSDGRRTFYGDNVK | GRAAGTFDS | 1.12 / 1.12 / 1.34 | 1.19 | 0 of 9 |
| 10 | GFTFNSYGIS | VIYSDGRRTFYGISVK | GRAAGTEDS | 4.86 / 2.84 / ND | 3.85 | 2 of 9 (4.58) |
| 11 | CFTLNSYGIS | VIYSDGRRTFYGDSVK | GRAAGTFDS | 4.27 / ND / ND | 4.27 | 2 of 9 (4.83) |
| 12 | GFTLNKYGIS | VIYSDGRFTFYGDSVK | GRAAGTFKS | ND / ND / ND | ND | 1 of 9 (3.95) |
| 13 | GFTLNSYGSS | VIYSDGRPTFNGDSVK | GRAAGTFDS | ND / 4.86 / ND | 4.86 | 1 of 9 (3.55) |
| 14 | GFTLNPYGIS | VIYSDGRRIFYGDSVK | GRAMGTFDS | 3.89 / 4.96 / ND | 4.42 | 6 of 9 (3.71) |
| 15 | GFTLNSYGIS | VIYSDGRRTFYGDSVK | GRAITTFDK | ND / ND / ND | ND | 0 of 9 |
| 16 | GFTLNSYGIS | VIYWPGRDTFYGDSVK | GRAAGTFDS | ND / ND / ND | ND | 2 of 9 (3.41) |
| 17 | GFTLNSYGIK | VIYSDGRRTFYGDSVE | GRYAGTFDS | ND / ND / ND | ND | 0 of 9 |
| 18 | GFTLNSYGIR | VIYSDGRRTFYGDSVA | GQAAGTFDS | 3.05 / 2.87 / ND | 2.96 | 0 of 9 |
| 19 | GFTLNSYGIS | VIYSDPRRTFYSDSVK | GRAAPTFDS | 4.80 / ND / ND | 4.80 | 5 of 9 (3.68) |
| 20 | GFTLNCMGIS | VIYSDGRRTFYGDSVK | GRTAGTFDS | 3.11 / 2.35 / 3.06 | 2.84 | 4 of 9 (3.87) |
| 21 | LFTLNSYGIS | VIYSDDYRTFYGDSVK | GRAAGTFDS | 3.59 / ND / ND | 3.59 | 2 of 9 (3.59) |
| 22 | GFTINSYGIS | VIYSDGMRTFYGDSVK | GRAAGTFYS | 2.01 / 2.23 / 2.08 | 2.11 | 0 of 9 |
| 23 | GFTLNSYGIS | VIYSDGRRTFYGDMFK | GRAAGTFTS | ND / ND / ND | ND | 2 of 9 (4.90) |
| 24 | GFTLNSYGIS | VQYSDGPRTFYGDSVK | GRAAGTWDS | ND / ND / ND | ND | 0 of 9 |
| 25 | GFTYNSYGIS | VIYSDGRRTDYGDSVK | GRAAGAFDS | ND / 4.48 / ND | 4.48 | 2 of 9 (3.32) |
| 26 | GFTLPSYGIS | VIYSDGRRTEYGDSVK | GRAAGTFDS | 2.07 / 2.21 / 2.12 | 2.13 | 2 of 9 (3.63) |
| 27 | HFTLNSYGIS | VITSDGRRTSYGDSVK | GRAAGTFDS | 2.65 / 2.79 / 4.67 | 3.37 | 4 of 9 (3.81) |
| 28 | GFTLNSYGFS | VIYSYGRRGFYGDSVK | GRAAGTFDS | ND / ND / ND | ND | 1 of 9 (3.27) |
| 29 | GFTLNSYGIS | VIYSDGRRTFFGVSVK | GRAAGTFDS | ND / ND / ND | ND | 2 of 9 (3.77) |
| 30 | GFTLNSYGIS | PIYSPGRRTFYGDSVK | GMAAGTFDS | ND / 3.95 / ND | 3.95 | 0 of 9 |
| 31 | GFTLNSYGIS | VIGSDGRRTFYGDSVK | GRAARTEDS | 3.54 / ND / 3.57 | 3.55 | 0 of 9 |
| 32 | GFTLNSYGIS | VIYSDGRWTFYGDSVK | GRAIETFDS | ND / ND / ND | ND | 0 of 9 |
| 33 | GFTLASYGIS | VIYSDGRRTFYGDSIK | GRAARTFDS | ND / ND / ND | ND | 1 of 9 (4.35) |
| 34 | GFTLNSYTHS | VIYSDGRRTFYGDSVK | GRAAGTFDS | ND / ND / 3.69 | 3.69 | 0 of 9 |
| 35 | GFTLNSYGIS | YIYSDGRRMFYGDSVK | GRAAPTFDS | ND / ND / ND | ND | 0 of 9 |
| 36 | PFTLNSYGVS | VIYSDGRRTFYGDSVK | GRAAGTFDS | 3.89 / 4.12 / 4.59 | 4.20 | 5 of 9 (4.62) |
| 37 | GFTLNSYGIS | VIYSDGRRTFYGDSVK | GYAAGGFDS | ND / 4.16 / ND | 4.16 | 1 of 9 (3.99) |
| 38 | GFTLNSYGIS | WIYSDGSHTFYGDSVK | GRAAGTFDS | ND / ND / 5.02 | 5.02 | 1 of 9 (3.59) |
| 39 | GFTLKSYGIS | VIYSDGRRWFYGDSVK | GRAAGTQDS | 3.10 / 2.96 / 4.02 | 3.36 | 1 of 9 (5.01) |
| 40 | GFTLNSYGIL | VISSHGRRTFYGDSVK | GRAAGTFDS | 4.22 / 4.22 / 4.07 | 4.17 | 4 of 9 (4.47) |